Tests used:
[1] = Solubility; format: physicochemical
From the text: (§1) This may be due in some measure, although this is not known, to the different aggregation properties of the amylins from different species.
(§2) The agonist analogues of amylin of this invention are useful in view of their pharmacological properties. […] In addition to the description of compounds pursuant to FIG. 3, certain preferred compounds are set forth in Table I. The preferred compounds des-^1Lys-h-amylin [SEQ. ID. NO. 7], ^28Pro-h-amylin [SEQ. ID. NO. 8], ^25, 28, 29Pro-h-amylin [SEQ. ID. NO. 9], ^18Arg^25, 28Pro-h-amylin [SEQ. ID. NO. 10], and des-^1Lys^18Arg^25, 28Pro-h-amylin [SEQ. ID. NO. […] These preferred compounds include ^25Pro^26Val^28, 29Pro-h-amylin [SEQ. ID. NO. 12], ^25, 28, 29Pro-h-amylin, and ^18Arg^25, 28Pro-h-amylin.

[2] = target: T1, amylin receptors (Rattus norvegicus, UniProt P32214); experiment: Receptor binding assay (125I-rat amylin competition, rat basal forebrain membranes); details: competition with 125I-rat amylin at 12-16 pM
T1 construct: This basal forebrain tissue, containing the nucleus accumbens and surrounding regions, was weighed and homogenized; from tissue; host or cells: rat basal forebrain (nucleus accumbens and surrounding regions) membranes
T1 sequence (P32214 25-516): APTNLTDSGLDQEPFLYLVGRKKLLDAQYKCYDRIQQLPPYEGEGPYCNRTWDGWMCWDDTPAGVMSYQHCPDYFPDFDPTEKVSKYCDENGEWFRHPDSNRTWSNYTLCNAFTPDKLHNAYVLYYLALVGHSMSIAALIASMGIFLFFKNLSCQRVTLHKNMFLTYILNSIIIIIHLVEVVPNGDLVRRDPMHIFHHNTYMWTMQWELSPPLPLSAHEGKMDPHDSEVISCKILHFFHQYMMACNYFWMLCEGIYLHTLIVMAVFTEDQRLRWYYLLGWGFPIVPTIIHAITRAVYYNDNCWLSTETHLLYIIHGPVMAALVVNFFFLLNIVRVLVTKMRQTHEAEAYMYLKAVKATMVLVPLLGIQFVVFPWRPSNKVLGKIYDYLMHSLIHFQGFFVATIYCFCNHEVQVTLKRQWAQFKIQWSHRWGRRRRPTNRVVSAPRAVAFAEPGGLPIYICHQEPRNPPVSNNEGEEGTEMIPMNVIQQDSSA
T1 sequence (Q9JJ74 27-148 partner): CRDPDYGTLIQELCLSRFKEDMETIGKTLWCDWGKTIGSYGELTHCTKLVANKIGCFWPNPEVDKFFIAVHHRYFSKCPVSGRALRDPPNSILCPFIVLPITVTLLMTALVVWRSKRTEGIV
From the text: Unlabeled peptides were obtained from BACHEM Inc. (Torrance, Calif.) and Peninsula Laboratories (Belmont, Calif.).
Male Sprague-Dawley rats (200-250) grams were sacrificed by decapitation. Brains were removed to cold phosphate-buffered saline (PBS). From the ventral surface, cuts were made rostral to the hypothalamus, bounded laterally by the olfactory tracts and extending at a 45Ε angle medially from these tracts. This basal forebrain tissue, containing the nucleus accumbens and surrounding regions, was weighed and homogenized in ice-cold 20 mM HEPES buffer (20 mM HEPES acid, pH adjusted to 7.4 with NaOH at 23ΕC). […] The final membrane pellet was resuspended in 20 mM HEPES buffer containing 0.2 mM phenylmethylsulfonyl fluoride (PMSF).
Solutions were incubated for 60 minutes at 2ΕC. […] Filters were washed immediately before filtration with 5 ml cold PBS, and immediately after filtration with 15 ml cold PBS.

[3] = Stability in solution; format: physicochemical
From the text: as §1, §2

SMILES: CC(C)C[C@H](NC(=O)[C@H](CCCNC(=N)N)NC(=O)[C@H](CCC(N)=O)NC(=O)[C@@H](NC(=O)[C@H](C)NC(=O)[C@@H]1CSSC[C@H](NC(=O)[C@@H](N)CCCCN)C(=O)N[C@@H](CC(N)=O)C(=O)N[C@@H]([C@@H](C)O)C(=O)N[C@@H](C)C(=O)N[C@@H]([C@@H](C)O)C(=O)N1)[C@@H](C)O)C(=O)N[C@@H](C)C(=O)N[C@@H](CC(N)=O)C(=O)N[C@@H](Cc1ccccc1)C(=O)N[C@@H](CC(C)C)C(=O)N[C@H](C(=O)N[C@@H](Cc1c[nH]cn1)C(=O)N[C@@H](CO)C(=O)N[C@@H](CO)C(=O)N[C@@H](CC(N)=O)C(=O)N[C@@H](CC(N)=O)C(=O)N[C@@H](Cc1ccccc1)C(=O)NCC(=O)N1CCC[C@H]1C(=O)N[C@H](C(=O)N[C@@H](CC(C)C)C(=O)N1CCC[C@H]1C(=O)N1CCC[C@H]1C(=O)N[C@H](C(=O)N[C@@H](CC(N)=O)C(=O)N[C@H](C(=O)NCC(=O)N[C@@H](CO)C(=O)N[C@@H](CC(N)=O)C(=O)N[C@H](C(=O)N[C@@H](Cc1ccc(O)cc1)C(N)=O)[C@@H](C)O)C(C)C)[C@@H](C)O)C(C)C)C(C)C [Example 2, ^25Pro^26Val^28, 29Pro-h-Amylin]
- solubility [1]: more desirable
- IC50 [2]: 0.018 nM
- stability in solution [3]: more desirable

SMILES: CC[C@H](C)[C@H](NC(=O)[C@@H]1CCCN1C(=O)CNC(=O)[C@H](Cc1ccccc1)NC(=O)[C@H](CC(N)=O)NC(=O)[C@H](CC(N)=O)NC(=O)[C@H](CO)NC(=O)[C@H](CO)NC(=O)[C@H](CCCNC(=N)N)NC(=O)[C@@H](NC(=O)[C@H](CC(C)C)NC(=O)[C@H](Cc1ccccc1)NC(=O)[C@H](CC(N)=O)NC(=O)[C@H](C)NC(=O)[C@H](CC(C)C)NC(=O)[C@H](CCCNC(=N)N)NC(=O)[C@H](CCC(N)=O)NC(=O)[C@@H](NC(=O)[C@H](C)NC(=O)[C@@H]1CSSC[C@H](NC(=O)[C@@H](N)CCCCN)C(=O)N[C@@H](CC(N)=O)C(=O)N[C@@H]([C@@H](C)O)C(=O)N[C@@H](C)C(=O)N[C@@H]([C@@H](C)O)C(=O)N1)[C@@H](C)O)C(C)C)C(=O)N[C@@H](CC(C)C)C(=O)N1CCC[C@H]1C(=O)N[C@@H](CO)C(=O)N[C@H](C(=O)N[C@@H](CC(N)=O)C(=O)N[C@H](C(=O)NCC(=O)N[C@@H](CO)C(=O)N[C@@H](CC(N)=O)C(=O)N[C@H](C(=O)N[C@@H](Cc1ccc(O)cc1)C(N)=O)[C@@H](C)O)C(C)C)[C@@H](C)O [Example 10, ^18Arg^25, 28Pro-h-Amylin]
- solubility [1]: more desirable
- IC50 [2]: 0.032 nM
- stability in solution [3]: more desirable

SMILES: CC[C@H](C)[C@H](NC(=O)[C@@H]1CCCN1C(=O)CNC(=O)[C@H](Cc1ccccc1)NC(=O)[C@H](CC(N)=O)NC(=O)[C@H](CC(N)=O)NC(=O)[C@H](CO)NC(=O)[C@H](CO)NC(=O)[C@H](Cc1c[nH]cn1)NC(=O)[C@@H](NC(=O)[C@H](CC(C)C)NC(=O)[C@H](Cc1ccccc1)NC(=O)[C@H](CC(N)=O)NC(=O)[C@H](C)NC(=O)[C@H](CC(C)C)NC(=O)[C@H](CCCNC(=N)N)NC(=O)[C@H](CCC(N)=O)NC(=O)[C@@H](NC(=O)[C@H](C)NC(=O)[C@@H]1CSSC[C@H](NC(=O)[C@@H](N)CCCCN)C(=O)N[C@@H](CC(N)=O)C(=O)N[C@@H]([C@@H](C)O)C(=O)N[C@@H](C)C(=O)N[C@@H]([C@@H](C)O)C(=O)N1)[C@@H](C)O)C(C)C)C(=O)N[C@@H](CC(C)C)C(=O)N1CCC[C@H]1C(=O)N1CCC[C@H]1C(=O)N[C@H](C(=O)N[C@@H](CC(N)=O)C(=O)N[C@H](C(=O)NCC(=O)N[C@@H](CO)C(=O)N[C@@H](CC(N)=O)C(=O)N[C@H](C(=O)N[C@@H](Cc1ccc(O)cc1)C(N)=O)[C@@H](C)O)C(C)C)[C@@H](C)O [Example 14, ^25, 28, 29Pro-h-Amylin]
- solubility [1]: more desirable
- IC50 [2]: 0.01 nM
- stability in solution [3]: more desirable

— patent publication US6610824B2 (Amylin Pharmaceuticals, Inc., priority 1991, dated 2003)
